The values below are quoted from earlier work in patent US20100311751A1, “SOLID DISPERSIONS CONTAINING AN APOPTOSIS-PROMOTING AGENT” (ABBOTT LABORATORIES, priority 2009, published 2010).

Chains of the proteins cited; added tags and fusions are not shown.
UniProt P10415, whole entry: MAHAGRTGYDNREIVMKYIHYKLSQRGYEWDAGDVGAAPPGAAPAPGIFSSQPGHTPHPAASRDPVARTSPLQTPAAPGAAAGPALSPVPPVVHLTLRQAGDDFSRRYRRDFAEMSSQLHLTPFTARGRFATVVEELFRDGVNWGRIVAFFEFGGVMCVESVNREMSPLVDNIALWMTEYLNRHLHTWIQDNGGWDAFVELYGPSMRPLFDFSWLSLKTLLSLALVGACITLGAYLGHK

The data set has as its target Bcl-2 (Homo sapiens, UniProt P10415). To be noted: read-out: binding affinity (Ki) to Bcl-2; cited from earlier work.

Where only a bound is given, the exact number is not on record here.

As for `CC1(C)CCC(c2ccc(Cl)cc2)=C(CN2CCN(c3ccc(C(=O)NS(=O)(=O)c4ccc(N[C@H](CCN5CCOCC5)CSc5ccccc5)c(S(=O)(=O)C(F)(F)F)c4)cc3)CC2)C1` [ABT-263], the Ki – broadly, a dissociation constant, usually derived from enzyme kinetics or from competition with a known ligand – is less than 1 nM.
